# From PubChem BioAssay AID588335 (The Scripps Research Institute Molecular Screening Center, 2011)
# The entries are a selection whose mix differs from that of the whole data set. The source made the active and inactive calls. Rule as the data show it: active = inhibition above about 30%; inactive = the rest.
# Assay: inhibition of GDH and TPI enzymes – biochemical, absorbance, full deck, artefact control for M. tuberculosis FBA inhibitor project, primary screen (AID 588335);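 also: 0% = DMSO wells and 100% = wells lacking the enzyme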
# Conditions: GDH-TPI coupled enzyme counterscreen, NADH absorbance; at 4.8 µM; stronger effect = higher value
row,Structure (SMILES),inhibition
1,CCC(=O)N(c1ccccc1)C1(COC)CCN(CCc2cccs2)CC1,inactive: 14.6%
2,CCC(=O)N(c1ccccc1)C1(COC)CCN(CCn2nnn(CC)c2=O)CC1,inactive: -13.6%
